Assay results reported in paper PMC7052140.

Tests used:
[1] = target: Cyt1Aa activated toxin, wild type (Bacillus thuringiensis subsp. israelensis) (UniProt P0A382)
[2] = target: Cyt1Aa disulfide-bridged protoxin dimer, wild type (Bacillus thuringiensis subsp. israelensis)

Substance | LC50, cytotoxicity on HEK293 cells (propidium iodide, flow cytometry) [1] | LC50, cytotoxicity on HEK293 cells (propidium iodide, flow cytometry) [2]
Cyt1Aa activated toxin, wild type (from UniProt P0A382 1-249) (domain or fragment) | 0.085 µM | –
Cyt1Aa disulfide-bridged protoxin dimer, wild type (complex) | – | 16.6 µM
